Source: US9085531B2 (priority 2004, dated 2015)

Sequences of proteins named here, by UniProt entry; tags and fusion partners are left off.
UniProt P23975, whole entry, looked up: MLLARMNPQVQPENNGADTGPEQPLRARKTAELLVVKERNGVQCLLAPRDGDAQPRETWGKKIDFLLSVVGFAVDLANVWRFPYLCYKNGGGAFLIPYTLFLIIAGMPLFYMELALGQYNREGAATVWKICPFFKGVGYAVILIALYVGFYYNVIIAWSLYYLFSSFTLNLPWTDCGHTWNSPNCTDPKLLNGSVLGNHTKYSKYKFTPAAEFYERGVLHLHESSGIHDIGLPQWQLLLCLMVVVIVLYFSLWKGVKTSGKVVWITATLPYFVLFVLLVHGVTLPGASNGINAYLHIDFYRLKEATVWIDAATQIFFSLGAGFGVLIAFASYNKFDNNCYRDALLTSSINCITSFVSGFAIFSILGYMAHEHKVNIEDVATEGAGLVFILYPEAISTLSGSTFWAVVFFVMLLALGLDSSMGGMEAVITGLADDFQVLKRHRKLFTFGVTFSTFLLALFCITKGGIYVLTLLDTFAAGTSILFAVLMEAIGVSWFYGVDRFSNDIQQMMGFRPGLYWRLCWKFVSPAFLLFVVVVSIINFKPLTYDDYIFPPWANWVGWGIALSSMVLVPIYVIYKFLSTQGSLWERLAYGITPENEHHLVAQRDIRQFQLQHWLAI
UniProt Q01959, whole entry, looked up: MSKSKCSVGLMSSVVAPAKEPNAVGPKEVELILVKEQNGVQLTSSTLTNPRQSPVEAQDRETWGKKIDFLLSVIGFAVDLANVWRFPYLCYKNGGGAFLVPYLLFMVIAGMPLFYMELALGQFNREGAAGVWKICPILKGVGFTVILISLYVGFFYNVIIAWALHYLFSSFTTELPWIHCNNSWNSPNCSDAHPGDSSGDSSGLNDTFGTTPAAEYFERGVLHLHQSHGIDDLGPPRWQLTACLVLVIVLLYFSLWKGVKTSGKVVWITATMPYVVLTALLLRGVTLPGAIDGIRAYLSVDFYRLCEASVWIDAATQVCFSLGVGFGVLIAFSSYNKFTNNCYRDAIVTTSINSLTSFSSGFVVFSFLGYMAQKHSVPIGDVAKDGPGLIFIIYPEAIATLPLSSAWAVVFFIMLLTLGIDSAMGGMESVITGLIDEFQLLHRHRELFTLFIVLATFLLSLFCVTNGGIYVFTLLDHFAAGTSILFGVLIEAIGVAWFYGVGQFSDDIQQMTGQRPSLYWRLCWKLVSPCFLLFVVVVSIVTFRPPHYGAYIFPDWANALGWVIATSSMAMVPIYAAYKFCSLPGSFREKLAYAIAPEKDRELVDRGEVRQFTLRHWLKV
UniProt P31645, whole entry, looked up: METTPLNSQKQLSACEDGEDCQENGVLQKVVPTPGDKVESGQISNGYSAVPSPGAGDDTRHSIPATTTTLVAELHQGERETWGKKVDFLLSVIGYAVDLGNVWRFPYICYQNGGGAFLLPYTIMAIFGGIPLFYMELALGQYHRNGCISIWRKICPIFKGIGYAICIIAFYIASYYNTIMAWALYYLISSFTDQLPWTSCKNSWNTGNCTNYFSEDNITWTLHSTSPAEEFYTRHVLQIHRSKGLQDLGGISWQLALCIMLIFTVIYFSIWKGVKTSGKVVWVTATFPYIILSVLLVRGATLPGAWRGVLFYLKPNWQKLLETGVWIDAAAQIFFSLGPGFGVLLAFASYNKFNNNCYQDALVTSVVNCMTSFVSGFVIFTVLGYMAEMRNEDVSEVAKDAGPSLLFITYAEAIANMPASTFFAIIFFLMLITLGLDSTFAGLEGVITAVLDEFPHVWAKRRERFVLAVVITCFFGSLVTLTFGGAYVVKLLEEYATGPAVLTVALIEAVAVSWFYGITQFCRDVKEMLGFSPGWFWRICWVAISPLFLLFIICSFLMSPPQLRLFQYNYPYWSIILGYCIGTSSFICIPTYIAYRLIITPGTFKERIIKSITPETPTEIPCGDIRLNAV

Tests used:
[1] = target: human NE transporter (NET) (Homo sapiens (Human), UniProt P23975); assay: Primary binding assay, NET ([3H] Nisoxetine)
[2] = target: human DA transporter (DAT) (Homo sapiens (Human), UniProt Q01959); assay: Primary binding assay, DAT ([3H] WIN 35,428)
[3] = target: human 5HT transporter (5HTT, SERT) (Homo sapiens (Human), UniProt P31645); assay: Primary binding assay, 5HTT/SERT ([3H] Citolapram); settings: read-out: SERT Ki; Table 1; binding affinity, human transporter in HEK293E cells
[4] = read-out: NET Ki, Table 1, binding affinity, human transporter in HEK293E cells
[5] = read-out: Ki, nM NET, Table 2, inhibition of radioligand binding at the human transporter
[6] = read-out: DAT Ki, Table 1, binding affinity, human transporter in HEK293E cells

Row | Compound | Ki [1, 4] | Ki [1, 5] | Ki [2, 6] | Ki [3] | other results
1 | CN1Cc2ccccc2C(c2cccs2)C1 (stereo not drawn) | 3060 nM |  |  |  | 
2 | CCN1Cc2ccccc2C(c2ccc3cn[nH]c3c2)C1 (stereo not drawn) |  | 12.7 nM |  |  | 
3 | Cc1ccc(C2CN(C)Cc3ccccc32)o1 (stereo not drawn) | 1640 nM |  | 5640 nM | 7530 nM | 
4 | COc1ccc(C2CN(C)Cc3ccccc32)cn1 (stereo not drawn) |  |  | 2790 nM | 470 nM | 
5 | CN1Cc2ccccc2C(c2ccc3sncc3c2)C1 (stereo not drawn) |  | 38.6 nM |  |  | 
6 | Cc1cccc2c1C(c1ccc3ccccc3c1)CN(C)C2 (stereo not drawn) |  |  |  |  | Ki ([2]; read-out: Ki, nM DAT, Table 2, inhibition of radioligand binding at the human transporter): 39.5 nM

Where two headings read alike, the source gives them in different places.
